Source: US8486916B2, “Medicine, food and drink or feed containing sphingomyelin” (Megmilk Snow Brand Co., Ltd., priority 2005, dated 2013)

Tested on: human colon adenocarcinoma cell line Caco-2
Assay: Test on tight junction formation (electric resistance)
Settings: 2 μg/ml in serum-free Cosmedium 001; 1st, 4th and 7th days of culture; FIG. 1

| Substance | electric resistance (R) value |
| --- | --- |
| Ganglioside GM3 [reference compound] | increased |
| sphingomyelin | increased |
